Experimental findings from patent publication US12152016B2, “Aryl hydrocarbon receptor modulators and uses thereof” (Beth Israel Deaconess Medical Center, Inc., priority 2018, dated 2024) are described below.

The experiment concerns the target T1, aryl hydrocarbon receptor (AHR) (Homo sapiens, UniProt P35869).
T1 sequence (P35869 11-848): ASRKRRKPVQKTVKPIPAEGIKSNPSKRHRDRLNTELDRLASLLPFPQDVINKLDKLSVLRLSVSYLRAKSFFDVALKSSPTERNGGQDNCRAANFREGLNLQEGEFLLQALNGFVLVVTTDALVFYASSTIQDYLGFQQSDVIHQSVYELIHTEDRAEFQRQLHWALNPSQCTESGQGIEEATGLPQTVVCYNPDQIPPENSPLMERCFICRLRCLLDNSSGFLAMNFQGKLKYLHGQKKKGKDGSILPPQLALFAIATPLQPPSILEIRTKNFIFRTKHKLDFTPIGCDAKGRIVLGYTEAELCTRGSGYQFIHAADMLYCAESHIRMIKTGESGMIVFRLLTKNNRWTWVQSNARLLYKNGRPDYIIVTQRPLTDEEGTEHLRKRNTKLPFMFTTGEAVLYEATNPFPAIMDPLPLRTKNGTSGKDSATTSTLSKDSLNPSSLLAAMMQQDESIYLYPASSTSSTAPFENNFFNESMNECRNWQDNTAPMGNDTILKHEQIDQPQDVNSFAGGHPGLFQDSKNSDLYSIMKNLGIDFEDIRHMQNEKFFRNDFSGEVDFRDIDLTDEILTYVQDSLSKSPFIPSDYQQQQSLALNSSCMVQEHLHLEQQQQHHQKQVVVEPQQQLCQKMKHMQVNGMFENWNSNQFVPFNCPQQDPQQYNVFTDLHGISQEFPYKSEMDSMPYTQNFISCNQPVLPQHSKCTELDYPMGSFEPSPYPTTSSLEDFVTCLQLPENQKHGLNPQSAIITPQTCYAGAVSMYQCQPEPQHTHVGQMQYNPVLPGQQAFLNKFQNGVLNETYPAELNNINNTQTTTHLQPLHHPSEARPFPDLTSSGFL
Put plainly: XRE-driven luciferase reporter assay, human HepG2.

For the compound `COC(=O)c1cccc(C(=O)c2c[nH]c3ccccc23)n1` [Compound 10, methyl 6-(1H-indole-3-carbonyl)pyridine-2-carboxylate], the “XRE luciferase Emax (fold)” value (Human HepG2, fold over vehicle) was 57 fold.
Turning to `COC(=O)c1ccc(C(=O)c2c[nH]c3ccccc23)s1` [Compound 24], where the note is “XRE luciferase EC50, Human HepG2, least square curve fitting, >10,000 = does not reach 50% of Emax of ITE at 10 μM (highest concentration tested)”, the EC50 came to 860 nM.
